Measurements: US20060258003A1, “Culture medium composition, culture method, and myoblasts obtained, and their uses” (CELOGOS, priority 2002, published 2006)

Tested on: rat muscle cells
Settings: 2 days culture

Q: How did the “specificity of toxicity, muscle cells versus adipocyte cells” value (0-1 μM) turn out when `CC[C@H](C)C(=O)O[C@H]1C[C@@H](C)C=C2C=C[C@H](C)[C@H](CC[C@@H]3C[C@@H](O)CC(=O)O3)[C@H]21` [Lovastatin] was run?
A: Its value is “preferential toxicity of Lovastatin for the muscle cells”.

Q: What about the “growth of muscle cells” value (0.5 μM) of the same molecule?
A: The value was “very inhibited in their growth”.
